Laboratory results as given in patent US20080096909A1, “APOMORPHINE INHIBITORS OF AMYLOID-BETA (ABETA) FIBRIL FORMATION AND THEIR USE IN AMYLOIDOSIS BASED DISEASE” (priority 2001, published 2008).

Amino acid sequences for entries named in this document (tags omitted). Residues count along the entry.
UniProt P05067, 672-711: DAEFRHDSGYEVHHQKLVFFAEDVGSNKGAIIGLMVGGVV

Columns and labels:
[1] = target: T1, Aβ 1-40 (Homo sapiens, UniProt P05067); test: Thioflavin T (ThT) fluorescence assay for fibril formation; format: biochemical; design: Amyloid-β (Aβ 1-40) was purchased from California Peptides (Lot # SF104); purchased California Peptides Lot # SF104; conditions: Aβ 1-40 100 μM incubated with compound, pH 7.4, 37° C., 3 days
Experimental: Preparation of Stock Peptide Solutions for Fibrillization Studies. Stock solutions of the inhibitors were prepared by dissolving the compounds at a concentration of 5-7 mM in water or in 1-1.5% DMSO solutions (for compounds with reduced solubility). Amyloid-β (Aβ 1-40) was purchased from California Peptides (Lot # SF104). Aβ 1-40 stock solutions were prepared by dissolving purified and lyophilized peptide in cold double distilled water to yield stock solutions at a concentration of 2 mg/mL. The stock solutions were used within 10-30 minutes of dissolution. Samples for fibril formation assay were prepared by diluting the appropriate amount of Aβ stock with pH 7.4 Tris-HCl buffer (50 mM Tris, 150 mM NaCl) to afford a final peptide concentration of 100 μM. […] Analytical ultracentrifugation, and electron microscopy were periodically used to ensure that we start our experiments with a hydrodynamically defined Aβ monomer, and the absence of any preformed fibrils in solution.
Thioflavin T (ThT) Fluorescence Assay for Fibril Formation. Thioflavin T was purchased from Aldrich (70% purity) and was recrystallized from benzene/ethanol (1:1) to afford yellow crystals (36). Thioflavin T binding assays were performed by addition of 50 μL of 100 μM Aβ solutions, which were incubated at 37° C. in the absence and presence of inhibitors, to 450 μL solution of 10 μM Thioflavin T in phosphate buffer (10 mM phosphate, 100 mM KCl). The solutions were mixed and fluorescence measurements were recorded in Biosystems model spectrofluorimeter at 25° C. using a 1 cm path length quartz cell. An excitation slit width of 4 nm and an emission slit width of 8 nm were employed. The excitation wavelength was set to 450 nm and emission monitored from 460-630 nm. The relative fluorescence at 482 nm was plotted for each sample, and was used as a measure of the amount of fibrillar aggregates in solution.

[2] = target: T1, Aβ 1-40; test: Sedimentation velocity of Aβ quaternary structures in the presence of inhibitors; format: biochemical; design: Amyloid-β (Aβ 1-40) was purchased from California Peptides (Lot # SF104); purchased California Peptides Lot # SF104; conditions: Aβ 100 μM, compound 100 μM, 20 h at 37° C.
Experimental: Probing the Mechanism of Amyloid Fibril Formation Inhibition using Sedimentation Velocity Experiments. To probe the mechanism by which apomorphine and its structural analogues inhibit Aβ fibril formation, sedimentation velocity was used to determine the distribution and molecular size of quaternary structures of Aβ in the presence and absence of inhibitors. Aβ samples (100 μM) in a pH 7.4 buffer (50 mM Tris-HCl, 150 mM NaCl) were incubated at 37° C. for 1-10 days in the presence and absence of inhibitors, then transferred to 25° C. for 1-3 hours before the sedimentation experiments were carried out at 20° C. The sedimentation properties of Aβ 1-40 in the absence and presence of inhibitors were obtained from data collected on a temperature controlled Beckman XL-1 using 400-420 μL of peptide solutions and data were recorded at rotor speeds of 3,000-30,000 rpm in continuous mode with a step size of 0.005 cm. The sedimentation velocity absorbance profiles were then analyzed using the time derivative (dc/dt) analysis program, which was provided by J. Philo, to obtain the sedimentation coefficient distribution g(*s) for all the quaternary structures in solution as described previously (37, 38).
Fitting of the g(*s) profiles allows for the determination of the sedimentation coefficient (peak position, with a unit of Svedberg, 1 S=10^−13 s) and the diffusion coefficient (from the peak width, with a unit of Fick, 1 F=[…]). This method has the advantage of allowing for the calculation of the molecular weight of the sedimenting species using equation II since s and D can be obtained from the fitting analysis. [formula]
In the cases where the diffusion coefficient cannot be determined accurately, the molecular weight of a spherical protein can still be estimated by combining the Svedberg equation and Stokes equation for the frictional coefficient to obtain equation III which utilizes the estimated sedimentation coefficient: [formula]
Sedimentation velocity was also used to determine the amount of soluble Aβ and Aβ monomer in solution after sedimentation of Aβ aggregates. […] The percent of monomeric species in solution was calculated using equation IV at 50,000 rpm and after complete sedimentation of Aβ high MW oligomeric species. Sedimentation equilibrium studies of the unsedimented species were carried out to determine whether a monomer, dimer or a mixture was present in solution. % of unsedimented Aβ=1−(Absorbance(290 nm, 3000 rpm)−Absorbance(290 nm, 20,000-30,000 rpm))×100 (IV)

[3] = target: T1, Aβ 1-40; test: Aβ 1-40 fibril formation inhibition judged by ThT, sedimentation velocity and electron microscopy; conditions: Aβ 1-40 100 μM, pH 7.4, 37° C., 3 days

| SMILES | Thioflavin T fluorescence at 482 nm (amount of fibrils) [1] | Major species in solution after 20 h [2] | Effect on Aβ 1-40 fibril formation (ThT, sedimentation velocity, EM) [3] |
| --- | --- | --- | --- |
| CN1CCc2cccc3c2C1Cc1ccc(O)c(O)c1-3 (single isomer, unassigned; (-)) [apomorphine, (−)-10,11-dihydroxyaporphine] | did not exhibit any increase in ThT fluorescence | accumulation of soluble nonfibrillar assemblies as the major species in solution | – |
| CCCN1CCc2cccc3c2[C@H]1Cc1ccc(O)c(O)c1-3.Cl [D027, R(−)-Propylnorapomorphine hydrochloride] | did not exhibit any increase in ThT fluorescence | accumulation of soluble nonfibrillar assemblies as the major species in solution | inhibited the formation of Aβ 1-40 fibrils |
| Br.CCCN1CCc2cc(O)cc3c2[C@H]1Cc1ccc(O)c(O)c1-3 [D029, R(−)-2,10,11-Trihydroxy-N-propylnorapomorphine hydrobromide] | did not exhibit any increase in ThT fluorescence | accumulation of soluble nonfibrillar assemblies as the major species in solution | inhibited the formation of Aβ 1-40 fibrils |
| Br.CN1CCc2cc(O)cc3c2[C@H]1Cc1ccc(O)c(O)c1-3 [D030, R(−)-2,10,11-Trihydroxyaporphine hydrobromide] | did not exhibit any increase in ThT fluorescence | accumulation of soluble nonfibrillar assemblies as the major species in solution | inhibited the formation of Aβ 1-40 fibrils |
| Br.Oc1ccc2c(c1O)-c1cccc3c1[C@@H](C2)NCC3 [D040, R(−)-Norapomorphine hydrobromide] | did not exhibit any increase in ThT fluorescence | accumulation of soluble nonfibrillar assemblies as the major species in solution | inhibited the formation of Aβ 1-40 fibrils |
| CCCN1CCc2cccc3c2[C@H]1Cc1ccc2c(c1-3)OCO2.Cl [M121, R(−)-10,11-Methylenedioxy-N-n-propylnoraporphine hydrochloride, reference compound] | ThT fluorescence similar in magnitude to that of Aβ 1-40 incubated alone | – | – |
| COc1ccc2c(c1O)-c1cccc3c1[C@@H](C2)N(C)CC3.Cl [R(−)-apocodeine, R(−)-Apocodeine hydrochloride, reference compound] | ThT fluorescence similar in magnitude to that of Aβ 1-40 incubated alone | – | – |
| COc1ccc2c(c1O)-c1c3c(cc4c1[C@H](C2)N(C)CC4)OCO3 [bulbocapnine, Bulbocapnine hydrochloride, reference compound] | ThT fluorescence similar in magnitude to that of Aβ 1-40 incubated alone | – | – |
| COc1ccc2c(c1O)-c1c(OC)c(OC)cc3c1[C@H](C2)N(C)CC3.Cl [isocrydine, Isocrydine hydrochloride, reference compound] | ThT fluorescence similar in magnitude to that of Aβ 1-40 incubated alone | – | – |

Counter-ions that a name gives are not always drawn.
